Sampled rows, rich in hits. Any-hit rate of the full collection: about 4.2%.
MC4R barr agon = activates human MC4R beta-arrestin recruitment; U2OS MC4R beta-arrestin complementation, luminescence; percent of melanotan II response, DMSO zero; activation, % at 8.9 µM; hit rate 0.98% among 360,000;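 active = activation above a per-plate cutoff, the mean activation of sample wells on that plate plus 3 SD, cut at about 8% in these data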
ALR inh = inhibitors of human ALR sulfhydryl oxidase, primary screen, biochemical, H2O2 detection, HRP-luminol luminescence, single point; 290,000 compounds, 3.8% hits; purified ALR, DTT oxidation; inhibition, % (no concentration beside the values); FAD-linked sulfhydryl oxidase ALR (Homo sapiens), P55789;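 active = mean and each replicate at 75% or more; inconclusive = only one of the two met; inactive = neither met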;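 also: stock transfer was 7.5 nL into about 7.5 µL; 0% = neutral wells and 100% = wells with inactivated enzyme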
HDAC3 inh = inhibitors of human histone deacetylase 3; recombinant HDAC3, fluorogenic peptide/trypsin coupled, fluorescence; inhibition, % at 8.3 µM; hit rate 0.15% among 320,000; AID 2718; in the data active = inhibition above about 26%, passing the limit was not always enough; inconclusive = no clear call, values can overlap the other calls
NALP1 inh = inhibitors of NALP1 inflammasome in yeast; S. cerevisiae NALP1/ASC/caspase-1 growth, X-gal OD620, 72 h; hit rate 0.61% among 280,000; inhibition, % at 10 µM; in the data active = inhibition mostly above about 24%, no sharp cut-off; inactive = mostly below about 32%
Yeast UUG start = alters start codon recognition fidelity in yeast | S. cerevisiae UUG-firefly luciferase reporter, luminescence/redox ratio | activity score, % at 18.7 µM | 350,000 compounds, 0.13% hits | AID 602363;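 active = replicate mean at a twofold rise or more, about +100% in these data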;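 note: firefly luciferase made from a UUG start codon reports start codon fidelity; reporter light over untreated wells divided by growth signal over untreated wells; some hits fall short of that in this replicate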
MC4R antag cAMP = blocks human MC4R cAMP signaling. P32245. AID 540295. inhibition, % at 6.5 µM. MC4R-expressing cells, MTII-stimulated cAMP, LANCE TR-FRET. hit rate 0.48% among 360,000;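 active = inhibition above its plate's cutoff, the mean of tested wells on that plate plus 3 SD, cut at about 29% in these data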
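material = U2OS cells stably expressing human melanocortin 4 receptor (MC4R) | also added = Melanotan II challenge | dosing = single nominal compound dose of 6.5 µM | detection = TR-FRET with Eu-cAMP and labeled anti-cAMP, 671 nm | replication = singlicate | timing = compound 30 min, challenge 1 h, detection 1 h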
Hits are given with their value; - = inactive; ? = inconclusive; . = no result.

SMILES | MC4R barr agon | ALR inh | HDAC3 inh | NALP1 inh | Yeast UUG start | MC4R antag cAMP
COc1ccc(CCC(C)NCCc2ccc(Cl)cc2Cl)cc1 (stereo not given) | 9.2 | - | - | - | - | -
O=C(CC(F)(F)F)N1C[C@@H]2[C@H](c3ccccc31)[C@@H](CO)N2C(=O)C1CCCC1 | . | . | . | . | - | .
Cc1cc(=O)n(C)c(=O)n1CCCCOc1ccc([N+](=O)[O-])cc1 | - | - | - | 49.9 | . | -
C[C@@H]1CN([C@H](C)CO)C(=O)c2cc(NC(=O)NC3CCCCC3)ccc2O[C@@H](C)CCCCO[C@H]1CN(C)Cc1ccccc1 | . | . | . | . | - | .
Cc1cc(=O)oc2cc(NC(=O)C3COc4ccccc4O3)ccc12 (stereo not given) | 10.6 | - | - | - | - | -
O=C(Nc1ccc2c(c1)OCO2)C1COc2ccccc2O1 (stereo not given) | - | - | - | - | . | -
Cc1ccc(S(=O)(=O)NNC(=O)C2COc3ccccc3O2)cc1C (stereo not given) | - | - | - | 39.8 | . | -
Cc1ccc(S(=O)(=O)NNC(=O)C2COc3ccccc3O2)cc1 (stereo not given) | - | - | - | - | - | -
C[C@@H]1CN([C@H](C)CO)C(=O)c2cccc(NS(C)(=O)=O)c2O[C@@H]1CN(C)S(=O)(=O)c1ccccc1 | . | . | . | . | - | .
CSc1nnc2c(n1)c(C)nn2-c1cccc(C)c1 | - | 95.0 | - | - | - | -
CS(=O)(=O)Nc1ccc2c(c1)[C@@H]1C[C@@H](CC(=O)NCc3ccc(Oc4ccccc4)cc3)O[C@@H](CO)[C@@H]1O2 | . | . | . | . | - | .
CN(C)S(=O)(=O)N1CCN(c2ccccc2)CC1 | - | 79.4 | - | - | - | -
CC(=Nc1ccc(O)cc1)c1sc2ccccc2c1O | - | - | - | - | - | -
CC(=Nc1ccccc1O)c1sc2ccccc2c1O | - | 92.3 | - | - | - | -
C=CCc1ccc(O)c(-c2ccc(O)c(CC=C)c2)c1 | - | 97.7 | - | - | - | -
COc1ccc(-n2c(C)c([N+](=O)[O-])c3ccc(O)c(CN(C)C)c32)cc1 | - | . | - | 24.2 | - | -
O=c1cc(-c2cccc3ccccc23)[nH][nH]1 | - | 88.3 | - | - | - | -
Cc1ccc(N2C(=O)CN(Cc3sccc3C)C2=S)cc1C | - | . | . | - | . | -
Cc1ccc(N2C(=O)CN(Cc3cccs3)C2=S)cc1C | - | 95.6 | - | - | - | -
CNC(=O)CCc1[nH]c2ccccc2c1Sc1ccccc1 | - | 98.5 | - | - | . | -
c1ccc(CNc2nc(-c3ccccc3)nc3ccccc23)cc1 | - | - | - | - | - | -
c1ccc(CNc2nc(NCc3ccccc3)c3ccccc3n2)cc1 | 8.6 | - | - | - | - | -
Cc1noc(C)c1NC(=O)N(C)C[C@H]1Oc2c(NS(=O)(=O)c3ccc(Cl)cc3)cccc2C(=O)N([C@@H](C)CO)C[C@@H]1C | . | . | . | . | - | .
CCOC(=O)C1C(=O)CC(C)(O)C(C(=O)OCC)C1c1ccc(N(CC)CC)cc1 (stereo not given) | - | 98.1 | - | - | - | -
CCOC(=O)C1C(=O)CC(C)(O)C(C(=O)OCC)C1c1ccc(F)cc1 (stereo not given) | - | - | - | - | - | -
SMILES | MC4R barr agon | ALR inh | HDAC3 inh | NALP1 inh | Yeast UUG start | MC4R antag cAMP
CCn1ncc(C(=O)Nc2cccc(Cl)c2)c1C | - | - | - | 45.2 | - | -
COCc1nnc(NC(=O)c2ccc(S(=O)(=O)N(CC(C)C)CC(C)C)cc2)o1 | - | 95.3 | - | - | . | -
O=C(O)c1ccc2noc(-c3ccccc3)c2c1 | - | - | ? | - | - | -
O=C(O)/C=C/c1ccc2c(-c3ccccc3)onc2c1 | - | 93.1 | - | - | . | -
O=C(CC1Oc2ccccc2NC1=O)NCCc1ccccc1 (stereo not given) | - | 85.9 | - | - | - | -
Cc1ccc(CCNC(=O)CC2Oc3ccc(C)cc3NC2=O)cc1 (stereo not given) | - | - | - | - | - | -
CCN(CCNC(=O)CC1Oc2ccccc2NC1=O)c1ccccc1 (stereo not given) | - | 97.3 | - | - | - | -
CC1CCN(Cc2ccc(NC(=O)CC3Oc4ccccc4NC3=O)cc2)CC1 (stereo not given) | - | 91.6 | - | - | - | -
COc1cccc(-c2cnc3c(c2)C(=O)N([C@H](C)CO)C[C@@H](C)[C@@H](CN(C)Cc2ccc(F)cc2)O3)c1 | . | . | . | . | - | .
C[C@@H]1CN([C@H](C)CO)C(=O)c2cc(-c3cccnc3)cnc2O[C@@H]1CN(C)C(=O)c1cccc(F)c1 | . | . | . | . | - | .
CCOC(=O)C1=C(O)/C(=C\c2ccc(OC)c(OC)c2)N=C1C | - | . | - | - | - | -
CCOc1cc(/C=C2/N=C(C)C(C(=O)OC)=C2O)ccc1O | - | 99.3 | - | - | . | -
CCOC(=O)C1=C(O)/C(=C\c2ccc(O)c(OCC)c2)N=C1C | - | 95.3 | - | - | . | -
CCOc1cc(/C=C2/C(=O)ON=C2C)ccc1O | - | 99.3 | - | - | - | -
CCOC(=O)C1=C(O)/C(=C/c2cc(OC)c(OC)c(OC)c2)N=C1C | - | - | - | - | - | -
COc1cc(/C=C2/C(=O)ON=C2C)cc(Cl)c1O | - | 90.8 | - | - | - | -
C/C=C/c1ccc2c(c1)O[C@H](CN(C)Cc1ccncc1)[C@@H](C)CN([C@@H](C)CO)S2(=O)=O | . | . | . | . | - | .
COc1ccc(S(=O)(=O)N[C@H]2CC[C@@H](CC(=O)NCc3ccccc3F)O[C@H]2CO)cc1 | . | . | . | . | - | .
Cc1ccccc1-c1cnc2c(c1)C(=O)N([C@H](C)CO)C[C@@H](C)[C@H](CN(C)Cc1ccncc1)O2 | . | . | . | . | - | .
COc1cc(/C=N/Nc2ccccn2)cc(OC)c1O | - | 99.1 | - | - | . | -
CCOc1ccc(/C=N/Nc2ccccn2)cc1OC | - | 86.5 | - | - | . | -
COc1cc(/C=C(\C#N)c2ccccn2)ccc1OCc1ccccc1Cl | - | - | - | - | - | -
CCCOc1ccc(/C=N/Nc2ccccn2)cc1OC | - | - | - | - | - | -
C(=N\Nc1ccccn1)/c1ccc2c(c1)OCCO2 | - | 98.4 | - | - | - | -
COc1cc(/C=C(\C#N)c2ccccn2)cc(OC)c1O | - | 97.8 | - | . | . | -
SMILES | MC4R barr agon | ALR inh | HDAC3 inh | NALP1 inh | Yeast UUG start | MC4R antag cAMP
Fc1cccc(/C=N/Nc2ccccn2)c1 | - | - | - | - | . | -
COc1ccc(C=NNC(=S)NN=Cc2ccc(OC)c(OC)c2)cc1OC | - | . | . | . | - | -
COc1cc(/C=N/NC(=S)NCCN2CCOCC2)cc(OC)c1O | - | 99.1 | - | - | - | -
COc1cc(/C=N/NC(=O)Cc2csc(N3CCOCC3)n2)cc(OC)c1O | - | 98.9 | - | - | . | -
COc1cc(/C=N/NC(=S)N/N=C/c2cc(OC)c(OC)c(OC)c2)cc(OC)c1OC | - | 87.9 | - | - | . | -
O=C(C[C@@H]1CC[C@@H](NC(=O)NC2CCCC2)[C@H](CO)O1)NCc1ccc(F)cc1 | . | . | . | . | - | .

Screens deposited in PubChem by several laboratories.
